Values quoted from earlier work as cited in patent publication US20030232862A1, “Method for treating a patient with neoplasia using Iressa” (priority 2002, published 2003).

Tested on: EGFR, HER2, and HER3 phosphorylation
Conditions: cited from earlier work

## COc1cc2ncnc(Nc3ccc(F)c(Cl)c3)c2cc1OCCCN1CCOCC1 [Iressa, 4-quinazolinamine, N-(3-chloro-4-fluorophenyl)-7-methoxy-6-[3-(4-morpholinyl)propoxy]-(9CI)]
  EGFR, HER2, and HER3 phosphorylation: eliminates EGFR, HER2, and HER3 phosphorylation
